Experimental data taken from ChEMBL document CHEMBL1154388.

Amino acid sequences for entries named in this document (tags omitted).
UniProt P31424, whole entry, looked up: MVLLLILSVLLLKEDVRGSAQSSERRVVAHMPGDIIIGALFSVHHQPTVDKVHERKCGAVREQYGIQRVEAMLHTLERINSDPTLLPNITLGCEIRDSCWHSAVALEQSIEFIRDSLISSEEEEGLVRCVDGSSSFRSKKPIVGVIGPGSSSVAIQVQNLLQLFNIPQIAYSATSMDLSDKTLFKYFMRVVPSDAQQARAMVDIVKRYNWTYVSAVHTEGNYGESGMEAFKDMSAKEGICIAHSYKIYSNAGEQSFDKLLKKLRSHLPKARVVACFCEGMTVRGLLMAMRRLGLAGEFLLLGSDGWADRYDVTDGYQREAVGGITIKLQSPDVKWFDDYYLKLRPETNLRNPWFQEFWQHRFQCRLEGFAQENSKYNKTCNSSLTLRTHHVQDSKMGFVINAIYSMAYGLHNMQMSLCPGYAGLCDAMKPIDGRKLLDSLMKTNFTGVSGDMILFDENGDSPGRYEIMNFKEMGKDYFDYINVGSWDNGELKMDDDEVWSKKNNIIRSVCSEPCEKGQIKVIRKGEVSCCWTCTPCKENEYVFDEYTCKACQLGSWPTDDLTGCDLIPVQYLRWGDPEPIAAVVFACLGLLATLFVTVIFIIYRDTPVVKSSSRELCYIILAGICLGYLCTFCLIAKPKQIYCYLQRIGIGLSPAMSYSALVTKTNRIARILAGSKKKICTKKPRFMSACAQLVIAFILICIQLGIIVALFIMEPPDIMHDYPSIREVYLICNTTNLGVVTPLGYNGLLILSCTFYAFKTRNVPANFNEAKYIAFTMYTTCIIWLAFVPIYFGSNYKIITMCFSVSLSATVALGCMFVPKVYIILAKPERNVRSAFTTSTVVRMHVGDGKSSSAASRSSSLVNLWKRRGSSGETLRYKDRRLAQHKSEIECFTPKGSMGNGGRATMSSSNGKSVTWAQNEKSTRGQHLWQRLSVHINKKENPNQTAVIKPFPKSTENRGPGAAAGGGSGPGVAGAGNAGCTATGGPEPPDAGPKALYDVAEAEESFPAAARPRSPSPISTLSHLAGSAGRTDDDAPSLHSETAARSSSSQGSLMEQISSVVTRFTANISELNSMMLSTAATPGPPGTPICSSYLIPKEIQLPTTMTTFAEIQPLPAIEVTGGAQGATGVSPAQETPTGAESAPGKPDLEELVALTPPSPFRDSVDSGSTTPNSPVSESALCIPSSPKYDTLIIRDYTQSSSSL

Molecular target: Metabotropic glutamate receptor 5 (Rattus norvegicus) (UniProt P31424)
Test: Positive allosteric modulator activity at rat mGluR5 receptor expressed in HEK293 cells assessed as potentiation of glutamate-induced response at 30 uM relative to glutamate
Type: cell-based
Procedure, shortened: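 In mGluR5-expressing HEK293A cells in the calcium mobilization assay, response amplitude with test compound present is expressed as a percentage of the maximal response to glutamate. Values are the average of n≥3.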

Activity: 34%
Compound: Fc1ccc2ncnc(Nc3ccc(F)c(Cl)c3)c2c1
